The values below come from patent US20140165223A1, “TNF SUPERFAMILY TRIMERIZATION INHIBITORS” (B.S.R.C. "Alexander Fleming", priority 2011, published 2014).

Chains of the proteins cited; added tags and fusions are not shown. Residues count along the entry.
UniProt O14788, 143-317 limits assumed: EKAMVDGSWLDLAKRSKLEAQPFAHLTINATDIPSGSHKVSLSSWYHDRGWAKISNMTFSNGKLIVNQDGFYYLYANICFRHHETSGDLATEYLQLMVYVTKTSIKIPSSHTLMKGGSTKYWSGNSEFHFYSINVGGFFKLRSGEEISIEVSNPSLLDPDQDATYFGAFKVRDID
UniProt P01375, 77-233 limits assumed: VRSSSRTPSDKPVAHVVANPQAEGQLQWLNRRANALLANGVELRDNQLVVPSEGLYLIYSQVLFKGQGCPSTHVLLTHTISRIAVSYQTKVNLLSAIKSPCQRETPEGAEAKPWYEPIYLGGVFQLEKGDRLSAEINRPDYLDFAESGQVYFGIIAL
UniProt P01375, whole entry: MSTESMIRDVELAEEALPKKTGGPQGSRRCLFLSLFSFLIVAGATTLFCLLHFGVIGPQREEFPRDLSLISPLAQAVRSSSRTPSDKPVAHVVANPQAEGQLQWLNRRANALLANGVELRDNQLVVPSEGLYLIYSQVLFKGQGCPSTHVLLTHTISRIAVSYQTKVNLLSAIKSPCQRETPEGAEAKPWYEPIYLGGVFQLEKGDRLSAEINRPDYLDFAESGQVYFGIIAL

The target of data set [1] is T1, human RANKL (Homo sapiens, UniProt O14788). Nature of the data set: RANKL-mediated osteoclastogenesis assay with human RANKL. In kind it is cell-based. Conditions: 5 μM (FIG. 14B).
A further data set relates to osteoclast precursors. Nature of the data set: MTT survival assay in osteoclast precursors. Conditions: read-out: IC50 in MTT survival assay (cell toxicity), M-CSF, 1-20 μM, 2 days.
The target of data set [2] is T1, human RANKL. Nature of the data set: Human RANKL cross-linking (DSS) and Western blot. In kind it is biochemical. Conditions: molar ratios small molecule:trimeric human RANKL from 1:1 to 100:1.
Another data set concerns L929 cells. As to the kind of experiment: Compound toxicity in L929 cells (TNF and actinomycin D omitted). Particulars: at least up to a concentration of 20 μM; without TNF. In kind it is cell-based. Here is the method:
FIG. 17. Inhibition of TNF-induced death in L929 cells. Increasing concentrations of the two compounds (Panel a, compound 1=T23; Panel b, compound 2=PRA224) were used to pre-incubate human TNF before addition to cells for 18 hours. Shown are mean values (n=3) relative to controls (TNF pre-incubated with DMSO). Data shown are representative of at least three experiments. In parallel experiments, the toxicity of the compounds was tested also in L929 cells using the same approach but omitting TNF and actinomycin D from the experimental set-up (Panel c, compound 1; Panel d, compound 2). Shown are mean values (n=3) relative to controls (DMSO-treated cells). Data shown are representative of at least three experiments.
Considering that the read-out of this assay is protection of death, it can also give an indication of the toxicity of the compounds; if they be more toxic than protective, no inhibition would be detected.

A further data set has as its target TNF/TNF-R1 interaction (Homo sapiens, UniProt P01375). Nature of the data set: TNF/TNF-R1 ELISA. Particulars: data not shown.
Data set [3] concerns the target T2, TNF (Homo sapiens, UniProt P01375). Nature of the data set: TNF-induced MMP9 release in wild-type synovial fibroblasts (gelatin zymography). Particulars: wild-type synovial fibroblasts stimulated by TNF, 18 hours.
Data set [4] deals with T2, TNF. As to the kind of experiment: MMP9 release in synovial fibroblasts from the human TNF-transgenic mouse (gelatin zymography). Conditions: TNF over-expressing synovial fibroblasts, no stimulation.

On to `COc1cc(OC(C)=O)c(-c2cc(OC(C)=O)c(OC)cc2OC(C)=O)cc1OC(C)=O`, for which, on human RANKL [1], the “inhibition of RANKL activity in osteoclastogenesis assays” value is on record as “inhibited human RANK activity”. The IC50 with osteoclast precursors is 8 µM. Further, on human RANKL [2], the “effect on RANKL trimerization (RANKL monomer levels)” value is “induced an increase of RANKL inactive monomers at the ratios of 3:1 and 10:1”. Besides, the “toxicity of the compounds in L929 cells” value in the data set on L929 cells is given as “minimally toxic”. In addition, the “inhibition of the TNF/TNF-R1 interaction” value on TNF/TNF-R1 interaction is “not found to inhibit”. Moreover, the figures for the “release of MMP9” value on TNF [3] and at TNF [4] were “dose-dependent reduction” and “a reduction can also be observed”, respectively.
